Test results reported in patent US20250177383A1, “DI-CYCLOPROPYL BASED IL-17A MODULATORS AND USES THEREOF” (DICE ALPHA, INC., priority 2022, published 2025).

Amino acid sequences for entries named in this document (tags omitted). Residues count along the entry.
UniProt Q16552, 24-155 limits assumed: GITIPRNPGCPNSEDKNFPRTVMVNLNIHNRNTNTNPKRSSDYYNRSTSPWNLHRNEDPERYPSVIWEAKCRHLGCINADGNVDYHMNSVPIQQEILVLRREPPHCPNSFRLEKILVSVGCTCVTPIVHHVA
UniProt Q96PD4, 31-163 limits assumed: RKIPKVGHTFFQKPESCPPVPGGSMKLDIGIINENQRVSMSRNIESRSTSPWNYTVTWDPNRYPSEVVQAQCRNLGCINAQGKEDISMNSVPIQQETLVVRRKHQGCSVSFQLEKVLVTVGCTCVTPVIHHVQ

Columns and labels:
IL-17A/A = IL-17A/A (Homo sapiens, UniProt Q16552); test: IL-17A/A HEK-Blue Cell Assay; settings: HEK-Blue IL-17 reporter cells, IL-17A/A stimulation, 20 hours, SEAP readout
IL-17A/F = IL-17A/F (Homo sapiens, UniProt Q16552+Q96PD4); test: IL-17A/F HEK-Blue Cell Assay; settings: HEK-Blue IL-17 reporter cells, IL-17A/F stimulation, 20 hours, SEAP readout

| SMILES | IL17 AA HEK-5 pIC50 (IL-17A/A) | IL17AF HEK Blue pIC50 (IL-17A/F) |
| --- | --- | --- |
| CCOC(=O)N1CCC[C@H]1C(=O)N[C@@H](C(=O)N1CCN(C)CC1)[C@@H](C)c1ccc(NC(=O)[C@@H](NC(=O)C2(F)CC2)C(C2CC2)C2CC2)c(F)c1 | A (pIC50 of greater than or equal 8 as A) | C (7>C≥5) |
| CCOC(=O)N[C@@H](C)C(=O)N[C@@H](C(=O)N1CCN(C)[C@H](C)C1)[C@@H](C)c1ccc(NC(=O)[C@@H](NC(=O)c2nonc2C)C(C2CC2)C2CC2)c(F)c1 | A (pIC50 of greater than or equal 8 as A) | B (8>B≥7 as B) |
| CCC(=O)NC(C(=O)N1CCN(C)CC1)C(c1ccc(NC(=O)[C@@H](NC(=O)c2ccnn2CC)C(C2CC2)C2CC2)c(F)c1)C(F)(F)F (single isomer, unassigned) | C (7>C≥5) | C (7>C≥5) |
| CCn1nccc1C(=O)N[C@H](C(=O)Nc1ccc([C@H](C)[C@@H](NC(=O)C(C)OCCOC)C(=O)N2CCN(C)[C@H](C)C2)cc1F)C(C1CC1)C1CC1 (single isomer, unassigned) | A (pIC50 of greater than or equal 8 as A) | C (7>C≥5) |
| CO[C@@H](C)C(=O)N[C@@H](C(=O)N1CCN(C)C(CF)C1)[C@@H](C)c1ccc(NC(=O)[C@@H](NC(=O)C2(F)CC2)C(C2CC2)C2CC2)c(F)c1 (single isomer, unassigned) | A (pIC50 of greater than or equal 8 as A) | C (7>C≥5) |
